Measurements reported in PubChem BioAssay AID602179 (National Center for Advancing Translational Sciences (NCATS), 2012).
The list shows a part of the results, in another mix than the full data. The source made the active and inactive calls. The call rests on the fitted dose curve; in most records, active means well fitted inhibition curve with a large enough effect; inconclusive means small, poorly fitted or top-dose-only effect; inactive means no such curve, though single readings can be large or run the other way.
Further: nearly all actives have a fitted effect of over 65% in size.
On the % scale 0 is the no-effect control and ±100 the full control effect.

Sequences of proteins named here, by UniProt entry; tags and fusion partners are left off.
UniProt O75874, whole entry R132H: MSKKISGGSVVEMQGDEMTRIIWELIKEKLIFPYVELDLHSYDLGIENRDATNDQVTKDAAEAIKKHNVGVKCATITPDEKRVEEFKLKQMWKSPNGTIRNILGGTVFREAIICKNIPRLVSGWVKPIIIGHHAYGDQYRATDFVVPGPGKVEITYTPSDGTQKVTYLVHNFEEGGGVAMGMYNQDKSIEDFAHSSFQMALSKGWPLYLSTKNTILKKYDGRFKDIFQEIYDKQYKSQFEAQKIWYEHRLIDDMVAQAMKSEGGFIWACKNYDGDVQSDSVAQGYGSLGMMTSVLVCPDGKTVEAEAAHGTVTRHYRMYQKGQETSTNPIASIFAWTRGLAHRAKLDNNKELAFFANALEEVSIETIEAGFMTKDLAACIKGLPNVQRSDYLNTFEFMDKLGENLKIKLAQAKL

The compounds below were run against Isocitrate dehydrogenase [NADP] cytoplasmic (Homo sapiens) (UniProt O75874) (assay: qHTS for Inhibitors of mutant isocitrate dehydrogenase 1 (IDH1): qHTS). Details: IDH1-R132H enzyme, NADPH consumption, diaphorase/resazurin fluorescence; at 76.6 µM (top of the series).
From the text: Unbiased genomic sequencing for 22 glioma genomes found recurrent mutation of isocitrate dehydrogenase 1 (IDH1) on chromosome 2q33-a gene encoding the cytosolic isoform of IIDH1associated with the tricarboxylic acid cycle (TCA) that catalyzes the oxidative decarboxylation of isocitrate, yielding alpha-ketoglutarate and CO2 via NADP+ to NADPH conversion. Subsequent studies confirmed the recurrent IDH mutations in up to 70% of secondary gliomas and in 10% of AML cases. […] This in effect defines IDH1 as an oncogene, and provides an extraordinary opportunity to discover chemical probes against mutant IDH1 that may translate into much needed new therapies for glioma and AML patients. […] NIH Chemical Genomics Center [NCGC] NIH Molecular Libraries Probe Centers Network [MLPCN] […]
IDH1-R132H (0.5 ug/mL) was dispensed into black, solid-bottom 1536-well plates at 3 uL/well in 20 mM Tris-HCl (pH 7.5), 150 mM NaCl, 10 mM MgCl2, 4 mM beta-ME, and 0.05% protease-free BSA. […] A pre-read was run on the Viewlux to identify fluorescent compounds (540 nm excitation filter, 598 nm emission filter, bodipy mirror and 2 second exposure). […] The plates were measured on an Envision plate reader for fluorescence signal using a 540 nm excitation filter and 590 nm emission filter with 10 flashes. […] Concentration-response curves were fitted to the signals arising from the resulting fluorescence. […]
For CCC(=O)N(c1ccccc1)C1(COC)CCN(CCc2cccs2)CC1, the activity change, negative = inhibition was inactive: -16.9%.
For CCC(=O)N(c1ccccc1)C1(COC)CCN(CCn2nnn(CC)c2=O)CC1, the activity change, negative = inhibition was inactive: -5.64%.
